Tests used:
[1] = tested on: MMP and ADAM; details: cited from earlier work
[2] = molecular target: T1, meprin α (Homo sapiens, UniProt Q16819); assay: Meprin α assay, fluorogenic substrate (Mca)-YVADAPK-(K-ε-Dnp), 384 and 1536 well plate formats; assay type: biochemical; details: versus meprin β, in words
T1 sequence (Q16819 66-593 limits assumed): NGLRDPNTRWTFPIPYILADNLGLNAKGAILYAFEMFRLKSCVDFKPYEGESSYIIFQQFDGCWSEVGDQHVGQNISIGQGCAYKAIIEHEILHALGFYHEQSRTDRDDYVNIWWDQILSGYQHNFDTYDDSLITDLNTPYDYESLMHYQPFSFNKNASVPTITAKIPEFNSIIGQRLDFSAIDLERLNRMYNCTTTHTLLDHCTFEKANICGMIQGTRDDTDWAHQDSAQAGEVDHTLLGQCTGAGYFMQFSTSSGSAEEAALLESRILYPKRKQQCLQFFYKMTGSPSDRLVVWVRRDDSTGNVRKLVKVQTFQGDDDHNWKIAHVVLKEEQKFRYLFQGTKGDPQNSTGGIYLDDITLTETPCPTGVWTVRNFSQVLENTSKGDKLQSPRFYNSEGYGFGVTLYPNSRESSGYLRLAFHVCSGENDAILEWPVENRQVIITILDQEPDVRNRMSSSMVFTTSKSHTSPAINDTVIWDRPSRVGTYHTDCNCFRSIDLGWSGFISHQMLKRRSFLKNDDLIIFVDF
Source text: The meprin α and meprin β assays, which utilize the substrates (Mca)-YVADAPK-(K-ε-Dnp) and (Mca)-EDEDED-(K-ε-Dnp), respectively, have been described previously. To enable an ultra-high-throughput screening (uHTS) campaign, we proceeded to miniaturize both assays to 1536 well plate format (wpf). First, we recapitulated the assays in 1536 well plate using reagents at the same concentrations as in 384 well plate format assays by scaling the volume down by the factor of 2.5.
Both assays followed the same general protocol. […] Reactions were incubated at RT for 1 h, after which the fluorescence was measured using the Synergy H4 multimode microplate reader (Biotek Instruments) (λexcitation = 324 nm, λemission = 390 nm).
Both assays followed the same general protocol. […] Reactions were incubated at RT for 1 h, after which the fluorescence was measured using the Viewlux multimode microplate reader (Perkin Elmer) (λexcitation = 324 nm, λemission = 390 nm).
The miniaturized 1536-well plate format meprin α and meprin β assays were used to screen a collection of approximately 650,000 compounds (The Scripps Research library, La Jolla, CA, USA) on the automated Kalypsys/GNF platform at The Scripps Research Molecular Screening Center (SRMSC, Jupiter, FL, USA: http://hts.florida.scripps.edu/). […] Sample to background (S/B) ratios, as well as Z and Z’ values, were calculated on a per plate basis as described 14. […]

Cc1nc(/N=N/c2cc(S(=O)(=O)O)c3cc([N+](=O)[O-])cc(S(=O)(=O)O)c3c2)c(COP(=O)(O)O)c(C=O)c1O [PPNDS]
selectivity against adamalysins and matrixins [1]: good selectivity

O=C(COc1ccc(Cl)cc1Cl)NO [Compound 1596857]
selectivity for meprin α [2]: show selectivity for meprin α

— PMC8000592, “Discovery and Optimization of Selective Inhibitors of Meprin α (Part I)” (Pharmaceuticals, 2021)
